Target: recombinant human GST-Syk (Homo sapiens (Human), UniProt P43405)
Assay: Homogeneous Time-Resolved Fluorescence (HTRF) assay for the recombinant human Syk enzyme
Format: biochemical
Conditions: recombinant human GST-Syk 5 pM, ATP 25 μM, read-out: rhSyk IC50
Description: Syk inhibition may be determined using the following assay protocol: Homogeneous Time-Resolved Fluorescence (HTRF) Assay for the Recombinant Human Syk Enzyme: A recombinant GST-hSyk fusion protein was used to measure potency of compounds to inhibit human Syk activity. […] To initiate the reaction the biotinylated substrate peptide (250 nM final concentration) that contains the phosphorylation site for Syk was added with magnesium (5 mM final concentration) and ATP (25 μM final concentration). […] Final volume of the quenching solution was 10 μL.

## Cc1cc(Nc2cc(C(F)F)ccn2)nc(-c2ccc(C(C)(O)[C@H]3CC[C@H](C(=O)OCOC(=O)C(C)(C)C)CC3)nc2)c1 (single isomer, unassigned) [Example 21-1, [(2,2-dimethylpropanoyl)oxy]methyl trans-4-[(1R or 1S)-1-(6-{[4-(difluoromethyl)pyridin-2-yl]amino}-4-methyl-2,3′-bipyridin-6′-yl)-1-hydroxyethyl] cyclohexanecarboxylate]
  IC50: 71 nM

— patent US9145391B2, “Bipyridylaminopyridines as Syk inhibitors” (Merck Sharp & Dohme Corp., priority 2011, dated 2015)
